Reported logP (octanol/water) values for industrial, environmental and drug-like chemicals

logP is the log10 of the octanol-water partition coefficient; higher is more lipophilic. Cells with "–" have no entry in this list.

compound,name,log Kow
CCCCCCCCCc1nc(N)nc(N)n1,"6-Nonyl-1,3,5-triazine-2,4-diamine",1.38
Oc1ccc2ccc(O)cc2c1,"2,7-Naphthalenediol",1.9
Cc1ccc(N=Nc2c(O)ccc3ccccc23)c([N+](=O)[O-])c1,C.I. Pigment Red 3,3.7
CC[P+](c1ccccc1)(c1ccccc1)c1ccccc1.[Br-],"Phosphonium, ethyltriphenyl-, bromide (1:1)",-0.044
C=CC(=O)Oc1ccc(C(=O)Oc2ccc(C(=O)O[C@@H]3CO[C@H]4[C@@H]3OC[C@H]4OC(=O)c3ccc(OC(=O)c4ccc(OC(=O)C=C)cc4)c(OC)c3)cc2OC)cc1,–,5.02
O=C1CCCCCN1C(=O)c1cccc(C(=O)N2CCCCCC2=O)c1,–,1.775
N=c1nc2c(ncn2C2CC(O)C(CO)O2)c(N)[nH]1 (centres undefined),–,-0.52
O=C([O-])c1ccc2c3ccc4c5c(ccc(c6ccc(C(=O)[O-])c1c26)c53)C(=O)NC4=O.[K+].[K+],–,0.2
O=C(Cl)c1ccc(C(=O)Cl)cc1,"1,4-Benzenedicarbonyl dichloride",0.88
CO[Si](C)(C)OC,Dimethoxydimethylsilane,-0.36
C=C(C)[C@@H]1CC[C@@H](C)C[C@H]1O,(-)-Isopulegol,2.4
COC(=O)CC1CCCCC1,Methylcyclohexylacetate,1.32
CCCCc1nc(C=O)c(Cl)[nH]1,2-Butyl-5-chloroimidazole-4-carbaldehyde,2.5
O=C1OC(=O)C2CCCCC12 (centres undefined),Hexahydrophthalic anhydride,1.33
N[C@@H](CCCCNC=O)C(=O)O,–,-2.84
CC(=O)c1cccc(C(F)(F)F)c1,"Ethanone, 1-[3-(trifluoromethyl)phenyl]-",2.55
CCCCC(CC)COC(=O)CCS (centres undefined),"Propanoic acid, 3-mercapto-, 2-ethylhexyl ester",4.9
O=C([O-])CCCCCCCCC(=O)[O-].[Li+].[Li+],Dilithium sebacate,0.001
O=[N+]([O-])c1ccc2cn[nH]c2c1,"1H-Indazole, 6-nitro-",2.06
Clc1cnc2ccccc2n1,2-Chloroquinoxaline,2.23
Cl.N/N=C(\O)C(N)CO (stereo partly drawn),–,0.001
COc1ccc(NC(=O)[C@@H]2C[C@H](C)CC[C@H]2C(C)C)cc1,–,3.95
C=CC(=O)OCCCCCCCCCCOC(=O)C=C,"1,10-Decanediyl diacrylate",4.9
CC(=O)CC(=O)Nc1ccccc1C,N-(2-Methylphenyl)-3-oxobutanamide,0.85
CC1(C)S[C@@H]2[C@H](N3C(=O)[C@@H](c4ccccc4)NC3(C)C)C(=O)N2[C@H]1C(=O)O,Hetacillin,1.3
CCCCC(CC)COC(=O)c1cc(C(=O)OCC(CC)CCCC)c(C(=O)OCC(CC)CCCC)cc1C(=O)OCC(CC)CCCC (centres undefined),–,6.01
C[C@@H]1O[C@@H](OC[C@H]2O[C@@H](Oc3c(-c4ccc(O)c(O)c4)oc4cc(O)cc(O)c4c3=O)[C@H](O)[C@@H](O)[C@@H]2O)[C@H](O)[C@H](O)[C@H]1O,Rutin,-2.02
CCCCc1cc(C)c(Nc2ccc(Nc3c(C)cc(CCCC)c(S(=O)(=O)[O-])c3Br)c3c2C(=O)c2ccccc2C3=O)c(Br)c1S(=O)(=O)[O-].[Na+].[Na+],–,2.55
COC(=O)CC(C)=O,Methyl acetoacetate,-0.33
CCCCCCCCCCCCCC[Si](C)(O[Si](C)(C)C)O[Si](C)(C)C,Capryl methicone,4.62
CCCCCCCCCC(=O)Oc1ccc(C(=O)O)cc1,4-decanoyloxybenzoic Acid,4
O[Si](c1ccccc1)(c1ccccc1)c1ccccc1,Triphenylsilanol,4.96
O=C(c1ccccc1Cl)C1CCCC1,2-Chlorophenyl cyclopentyl ketone,3.7
CCOC(=O)/C=C/C(=O)OCC,(2E)-2-Butenedioic acid diethyl ester,2.12
CCOCC1CCC(COCC)CC1 (centres undefined),"1,4-Bis(ethoxymethyl)cyclohexane",3
CC(C)CC(C)c1ccccc1N (centres undefined),"2-(1,3-Dimethylbutyl)aniline",3.8
OCc1ccc(Cl)cc1Cl,"2,4-Dichlorobenzyl alcohol",2.8
CC(O)C(=O)O.CCCCC(CC)COC(=O)Nc1ccc(C)c(NC(=O)OCCN(C)C)c1 (centres undefined),–,4.38

Excerpt, the opening 3 entries:

{"smiles": "CCCCCCCCCc1nc(N)nc(N)n1", "name": "6-Nonyl-1,3,5-triazine-2,4-diamine", "log Kow": "1.38"}
{"smiles": "Oc1ccc2ccc(O)cc2c1", "name": "2,7-Naphthalenediol", "log Kow": "1.9"}
{"smiles": "Cc1ccc(N=Nc2c(O)ccc3ccccc23)c([N+](=O)[O-])c1", "name": "C.I. Pigment Red 3", "log Kow": "3.7"}

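OPERA's authors assembled the values from existing databases and did not measure them anew. The files give a single number for a compound and property, which may rest on several reports. Method and conditions are not stated for these values. A value may pool stereoisomers or salt forms, and the file does not say which form was measured. Unmarked limits or estimates from the upstream databases cannot be ruled out.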

From the experimental data distributed with OPERA 2.9.